From patent US20040081973A1, “Cloning and characterization of a novel BK channel isoform highly expressed in glioma cells” (priority 2002, published 2004)

The chains behind the UniProt entries cited, without tags or fusion partners. Residues count along the entry.
UniProt Q12791, 66-1239 isoform Q12791-7 limits assumed: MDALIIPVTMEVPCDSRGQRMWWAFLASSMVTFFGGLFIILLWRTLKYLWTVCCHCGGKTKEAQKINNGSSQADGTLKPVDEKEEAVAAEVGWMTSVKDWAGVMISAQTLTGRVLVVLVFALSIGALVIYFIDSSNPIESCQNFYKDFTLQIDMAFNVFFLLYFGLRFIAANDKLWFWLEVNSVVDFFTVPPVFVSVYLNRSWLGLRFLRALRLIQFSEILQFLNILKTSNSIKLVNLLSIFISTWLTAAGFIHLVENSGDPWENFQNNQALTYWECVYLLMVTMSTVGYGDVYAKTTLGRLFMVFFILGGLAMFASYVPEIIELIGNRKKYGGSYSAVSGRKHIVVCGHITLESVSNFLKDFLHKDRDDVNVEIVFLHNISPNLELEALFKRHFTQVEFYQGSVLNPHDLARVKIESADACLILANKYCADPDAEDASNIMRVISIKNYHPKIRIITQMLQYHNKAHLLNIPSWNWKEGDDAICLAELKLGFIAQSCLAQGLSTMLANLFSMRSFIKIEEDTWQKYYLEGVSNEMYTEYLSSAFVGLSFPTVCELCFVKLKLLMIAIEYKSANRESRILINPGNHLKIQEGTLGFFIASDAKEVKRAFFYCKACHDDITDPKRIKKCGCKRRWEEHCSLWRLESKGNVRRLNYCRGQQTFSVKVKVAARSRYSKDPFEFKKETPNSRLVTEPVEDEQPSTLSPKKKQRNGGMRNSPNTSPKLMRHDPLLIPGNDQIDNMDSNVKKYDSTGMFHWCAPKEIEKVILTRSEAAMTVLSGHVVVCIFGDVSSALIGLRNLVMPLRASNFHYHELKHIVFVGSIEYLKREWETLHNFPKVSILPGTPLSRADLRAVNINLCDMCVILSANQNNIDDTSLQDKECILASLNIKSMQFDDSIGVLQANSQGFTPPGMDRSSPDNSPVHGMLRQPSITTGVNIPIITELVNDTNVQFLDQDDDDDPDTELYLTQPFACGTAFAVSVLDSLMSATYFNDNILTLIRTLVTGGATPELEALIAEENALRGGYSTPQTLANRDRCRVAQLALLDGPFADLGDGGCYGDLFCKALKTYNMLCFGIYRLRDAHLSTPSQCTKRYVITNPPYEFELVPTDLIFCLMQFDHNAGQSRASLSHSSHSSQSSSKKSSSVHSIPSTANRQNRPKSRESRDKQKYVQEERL

Key:
[1] = system: currents in uninjected oocytes; test: Two-electrode voltage-clamp of uninjected Xenopus oocytes; type: cell-based, Xenopus laevis; conditions: 100 nM IbTX
Procedure: (§1) FIG. 6 illustrates gBK forms functional, IbTX-sensitive BK channels in Xenopus oocytes. gBK injected oocytes express large voltage-activated outward currents. Current recordings were obtained by double-electrode voltage-clamp in OR2 medium containing 92.5 mM NaCl, 2.5 mM KCl, 1 mM CaCl2, 1 mM MgCl2 and 5 mM HEPES, pH 7.5, with 3 M KCl containing microelectrodes. Oocytes were held at −20 mV and stepped to test potentials between 0 and +180 in 20 mV increments. […] Greater than 60% of total currents were inhibited by 100 nM IbTX.
The ability of gBK protein expressed in Xenopus oocytes to form functional BK channels was examined by two-electrode voltage-clamp. Two days after cRNA injection, the oocytes were placed in a 100 μl chamber with continuous perfusion of OR2 solution. The oocytes were voltage-clamped at −20 mV and then jumped to 10 voltage steps in 20 mV increments (0˜+180 mV) using a GeneClamp 500 amplifier (Axon Instruments, Foster City, Calif.). The current signal was low-pass-filtered at 2 kHz and digitized at 10 kHz. […] Two days after cRNA injection, large amplitude voltage-activated outward currents were recorded (FIG. 6, right panel), which were not detected in uninjected oocytes (FIG. 6, left panel). […]

U-251MG glioma cells = U-251MG glioma cells (Soroceanu et al., 1999); cited from earlier work
U251-MG glioma cells = conditions: 10 nM; U251-MG glioma cells (Soroceanu et al., 1999); cited from earlier work
gBK = gBK (Homo sapiens, UniProt Q12791); test: Two-electrode voltage-clamp of gBK injected Xenopus oocytes, IbTX block; type: cell-based; set-up: gBK expression as a full-length protein in Xenopus oocytes was examined; expressed in transfected cells; host or cells: Xenopus laevis oocytes injected with in vitro transcribed gBK cRNA
Procedure: as §1
FIG. 7 illustrates the dose-response of IbTX inhibition of gBK currents in gBK injected oocytes. […] The data were least-squares fitted to a modified Hill equation of the form: I/Imax=1/(1+([IbTX]/IC50)^n), where I is the IbTX sensitive current, Imax is the maximum current of the fit, IC50 is the half-maximal inhibitory concentration of IbTX, and n is the Hill coefficient. The dose-responses were obtained after applying IbTX up to 20 min until it reached steady states and the continuous line was obtained from average data of three oocytes.
Stage VI oocytes from female Xenopus laevis (Xenopus I, Ann Arbor, Mich.) were harvested and incubated at 16° C. before injection. […] Functional BK channel expression was observed within 2 days and increasing current levels could be measured up to 4-7 days after injection. […]
The ability of gBK protein expressed in Xenopus oocytes to form functional BK channels was examined by two-electrode voltage-clamp. […] Two days after cRNA injection, large amplitude voltage-activated outward currents were recorded (FIG. 6, right panel), which were not detected in uninjected oocytes (FIG. 6, left panel). […]
A complete dose-response curve for inhibition of gBK currents by IbTX was established from three oocytes by voltage-clamp recordings. […] The IC50 and Hill coefficient of IbTX inhibition of gBK currents were determined by least-squares fit of the I/Imax-[IbTX] relation of IbTX sensitive currents to a Hill equation. […]

CSCC[C@@H]1NC(=O)[C@@H]2CSSC[C@H](NC(=O)[C@H](CC(=O)O)NC(=O)[C@@H](NC(=O)[C@H](CC(=O)O)NC(=O)[C@@H](NC(=O)[C@H](Cc3ccccc3)NC(=O)[C@@H]3CCC(=O)N3)[C@@H](C)O)C(C)C)C(=O)N[C@@H](CO)C(=O)N[C@@H](C(C)C)C(=O)N[C@@H](CO)C(=O)N[C@@H](CCCCN)C(=O)N[C@@H](CCC(=O)O)C(=O)N[C@H]3CSSC[C@H](NC(=O)[C@H](CCCCN)NC(=O)[C@H](CCCCN)NC(=O)CNC1=O)C(=O)N[C@@H](CCCNC(=N)N)C(=O)N[C@H](C(=O)N[C@@H](Cc1ccc(O)cc1)C(=O)N[C@@H](CCC(N)=O)C(=O)O)CSSC[C@H](NC(=O)[C@H](C(C)C)NC(=O)[C@H](CO)NC(=O)[C@H](Cc1c[nH]c4ccccc14)NC3=O)C(=O)N[C@@H](CCCCN)C(=O)N[C@@H](CC(=O)O)C(=O)N[C@@H](CC(C)C)C(=O)N[C@@H](Cc1ccccc1)C(=O)NCC(=O)N[C@@H](C(C)C)C(=O)N[C@@H](CC(=O)O)C(=O)N[C@@H](CCCNC(=N)N)C(=O)NCC(=O)N[C@@H](CCCCN)C(=O)N2 [IbTX, iberiotoxin]
Effect on currents in uninjected oocytes [1]: did not affect currents
Effect on migration in vitro (U-251MG glioma cells): inhibit migration
Effect on in vitro invasion (U251-MG glioma cells): reduce the in vitro invasion
inhibition at 0.1 µM (gBK; 100 nM IbTX, gBK injected oocytes, read-out: Inhibition of total currents): > 60%
Hill coefficient of IbTX block of gBK currents (gBK; ±S.D., n=3 oocytes): 0.76±0.10
IC50 (gBK; ±S.D., n=3 oocytes, steady-state currents at +160 mV): 5.7 ± 1.23 nM
